Results as given in PubChem BioAssay AID485367 (National Center for Advancing Translational Sciences (NCATS), 2010).
The entries are a selection whose mix differs from that of the whole data set. Active and inactive are the calls of the source. Calls come from the whole dose curve; as a rule, active = well fitted inhibition curve with a large enough effect; inconclusive = small, poorly fitted or top-dose-only effect, or effect the other way; inactive = flat fitted curve, though single readings scatter.

By UniProt entry, the sequences of proteins in these tests, tags left out.
UniProt O15648, whole entry: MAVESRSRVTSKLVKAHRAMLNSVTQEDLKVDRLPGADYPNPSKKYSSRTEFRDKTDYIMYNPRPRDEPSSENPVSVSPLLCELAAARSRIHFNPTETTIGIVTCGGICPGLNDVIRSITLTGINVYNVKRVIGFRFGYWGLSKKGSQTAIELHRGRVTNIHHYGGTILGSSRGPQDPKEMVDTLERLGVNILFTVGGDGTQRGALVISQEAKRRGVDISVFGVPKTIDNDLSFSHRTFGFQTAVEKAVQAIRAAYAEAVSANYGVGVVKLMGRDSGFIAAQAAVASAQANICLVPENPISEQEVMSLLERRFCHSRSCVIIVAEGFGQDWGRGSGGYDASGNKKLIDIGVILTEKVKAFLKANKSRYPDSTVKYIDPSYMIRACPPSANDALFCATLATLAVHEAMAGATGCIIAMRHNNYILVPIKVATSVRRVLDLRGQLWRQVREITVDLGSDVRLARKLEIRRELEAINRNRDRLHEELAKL

The compounds below were run against ATP-dependent 6-phosphofructokinase (Trypanosoma brucei brucei) (UniProt O15648) (assay: qHTS Assay to Find Inhibitors of T. brucei phosphofructokinase). Details: T. brucei PFK, ADP-Glo luminescence; at 57.5 µM (top of the series).
Excerpt: NIH Molecular Libraries Probe Production Network [MLPCN] NIH Chemical Genomics Center [NCGC] Grant: 1 R03 MH092153-01 PI Name: Malcolm Walkinshaw, University of Edinburgh NCGC Assay Overview: Various species of the protozoan family Trypanosomatidae are responsible for a range of serious human diseases in tropical and subtropical areas of the world. […] Many of the disorders caused by trypanosomatids are fatal if left untreated, but most currently used drugs are inefficient and toxic. […] A luminescence-based assay for T. brucei PFK activity has been developed which uses luciferase to detect production of ADP. […] To directly measure the ADP product of the PFK reaction, we used the ADP-Glo detection kit (Promega), which utilizes two separate reactions to 1) deplete all remaining uncatalyzed ATP and 2) convert all remaining ADP to ATP, which is then detected through a traditional luciferase-coupled reaction. […]
NCGC Assay Protocol Summary: NCGC Assay Protocol Summary: Substrate buffer was dispensed into white, solid 1536-well plates at 3uL/well in 0.1M triethanolamine (TEA) buffer, pH 8.0, containing final concentrations of 5 mM MgCl2, 0.01% Tween20, 0.5 mM fructose-6-phosphate (F6P) and 0.1mM ATP. […] The plates were measured on a ViewLux plate reader for luminescent signal using a clear filter with a one second exposure. The %Activity was determined from the corrected luminescence values. […]
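Note: 0% = uninhibited 1x PFK enzyme wells and -100% = no-enzyme wells; nearly all actives have a fitted effect of over 60% in size.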

Compound | activity, negative = inhibition
CCC(=O)N(c1ccccc1)C1(COC)CCN(CCn2nnn(CC)c2=O)CC1 | inactive: 0%
CCC(=O)N(c1ccccc1)C1(COC)CCN(CCc2cccs2)CC1 | inactive: -1.57%
